{"sequences": {"note": "Sequences of proteins named here, by UniProt entry; tags and fusion partners are left off. A change or cut given only in a name is not applied to a line headed by its entry.", "UniProt Q9P0U3": "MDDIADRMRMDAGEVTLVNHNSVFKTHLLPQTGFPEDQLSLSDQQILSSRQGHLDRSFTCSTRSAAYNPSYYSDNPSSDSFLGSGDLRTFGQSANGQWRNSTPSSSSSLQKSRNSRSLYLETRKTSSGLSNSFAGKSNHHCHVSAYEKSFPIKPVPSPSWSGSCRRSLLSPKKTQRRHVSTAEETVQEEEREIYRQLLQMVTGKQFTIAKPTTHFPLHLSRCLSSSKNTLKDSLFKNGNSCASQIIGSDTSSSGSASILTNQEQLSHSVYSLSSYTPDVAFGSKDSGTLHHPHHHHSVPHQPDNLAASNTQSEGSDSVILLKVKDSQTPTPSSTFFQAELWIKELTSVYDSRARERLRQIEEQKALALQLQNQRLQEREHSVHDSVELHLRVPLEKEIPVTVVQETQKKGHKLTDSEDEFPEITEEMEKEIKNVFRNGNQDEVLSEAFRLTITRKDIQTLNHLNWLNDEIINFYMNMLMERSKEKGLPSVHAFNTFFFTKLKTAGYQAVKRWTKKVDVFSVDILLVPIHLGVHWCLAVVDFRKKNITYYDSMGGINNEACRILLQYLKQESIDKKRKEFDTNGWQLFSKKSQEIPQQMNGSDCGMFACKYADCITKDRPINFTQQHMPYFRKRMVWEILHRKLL"}, "source": "PubChem BioAssay AID624204", "about": "(Sanford-Burnham Center for Chemical Genomics, 2012)", "note": "The list shows a part of the results, in another mix than the full data. The source made the active and inactive calls.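 Rule for the calls: active = inhibition at least 30% at 10 µM, raw YFP signal under a set limit, fluorescence ratio 0.5 to 1.5; inactive = the rest.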"}
{"target": "Sentrin-specific protease 1 (Homo sapiens) (UniProt Q9P0U3)", "test": "human SENP1 catalytic domain inhibitors, primary screen, biochemical, FRET, uHTS (AID 624204);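 note: 0% = enzyme with DMSO and 100% = no enzyme wells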", "conditions": "recombinant SENP1 catalytic domain, CyPet-SUMO1-YPet FRET cleavage; at 10 µM; active compounds read high", "procedure,_shortened": "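Test system: recombinant human SENP1 catalytic domain, His6-tagged / Medium: pH 8 Tris buffer with EDTA, NaCl, BME, BSA, NP40, catalase / Also added: SUMO1 FRET substrate flanked by Cypet and Ypet, 25 nM / Times: 50 min reaction at room temperature / Signal: FRET, CFP and YFP emission / Control set: no-enzyme low control and enzyme-plus-DMSO high control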"}
{"smiles": "O=C(Nc1cc([As](=O)(O)O)ccc1O)c1ccccc1", "inhibition": "inactive: 0.838%"}
{"smiles": "O=P1(N(CCCl)CCCl)OCCCS1", "note": "(stereo not drawn)", "inhibition": "inactive: -0.166%"}
{"smiles": "O=[N+]([O-])c1cccc(NC2=NCC(CBr)S2)c1", "note": "(stereo not drawn)", "inhibition": "inactive: 0.819%"}
{"smiles": "COC(=O)C1(C)COP(=O)(Nc2ccccc2)OC1", "note": "(stereo not drawn)", "inhibition": "inactive: 2.34%"}
{"smiles": "O=C(O)CNc1ccc([As](=O)(O)O)cc1", "inhibition": "inactive: 0.0631%"}
{"smiles": "CC(C)(C)C(=O)NC(Sc1ccncn1)C(Cl)(Cl)Cl", "note": "(stereo not drawn)", "inhibition": "inactive: -1%"}
{"smiles": "O=[N+]([O-])c1ncn(CCn2ncnc2[N+](=O)[O-])n1", "inhibition": "inactive: 1.65%"}
{"smiles": "O=[N+]([O-])c1cccc2n[nH]nc12", "inhibition": "inactive: -0.0314%"}
{"smiles": "CC(=O)N1C2C3N(C(C)=O)C1C1N(C(C)=O)C(C(N1C(C)=O)N3C(C)=O)N2C(C)=O", "inhibition": "inactive: 2.64%"}
{"smiles": "CCc1nc2c(n1)c1c(non1O)c1c2no[n+]1[O-]", "inhibition": "inactive: 4.72%"}
{"smiles": "O=[N+]([O-])c1cc([N+](=O)[O-])c(CCNc2ccccc2)c([N+](=O)[O-])c1", "inhibition": "inactive: 5.16%"}
{"smiles": "Cc1ccc(NP(=O)(Oc2ccccc2)Oc2ccccc2)nc1", "inhibition": "inactive: -0.617%"}
{"smiles": "COc1ccc(C2=NCC(CBr)S2)cc1", "note": "(stereo not drawn)", "inhibition": "inactive: -1.04%"}
{"smiles": "CN(C)C(=O)OCCc1n(C)cc[n+]1C", "inhibition": "inactive: -0.0113%"}
{"smiles": "CC(C)=N/N=C(\\N)N[N+](=O)[O-]", "inhibition": "inactive: 3.42%"}
{"smiles": "CC(C)c1nc(Nc2ccccc2)n(P(=O)(N(C)C)N(C)C)n1", "inhibition": "inactive: 0.419%"}
{"smiles": "c1cc(-c2nn[nH]n2)ccc1-c1nn[nH]n1", "inhibition": "inactive: 1.45%"}
{"smiles": "CC1CCN(C(=O)Oc2c(Cl)cc(Cl)c3cccnc23)CC1", "inhibition": "inactive: -0.788%"}
{"smiles": "C[N+]1=C2C=CC=CC=C2SC12C([N+](=O)[O-])=CC([N+](=O)[O-])=C[C-]2[N+](=O)[O-]", "note": "(stereo not drawn)", "inhibition": "inactive: 6.19%"}
{"smiles": "Nc1ccc([As](=O)(O)c2ccc(N)cc2)cc1", "inhibition": "inactive: 2.87%"}
{"smiles": "CCN(/C(=N/P(=O)(N1CCOCC1)N1CCOCC1)N1CCOCC1)c1ccc(OC)cc1", "inhibition": "inactive: 1.16%"}
{"smiles": "O=C(Nc1ccncc1[N+](=O)[O-])c1ccc([N+](=O)[O-])cc1[N+](=O)[O-]", "inhibition": "inactive: 1.55%"}
{"smiles": "O=C(COc1ccccc1)OC1CN2CCC1CC2", "note": "(stereo not drawn)", "inhibition": "inactive: -0.191%"}
{"smiles": "O=C(O)C(=O)c1ccc(N(CCCl)CCCl)cc1", "inhibition": "inactive: 0.328%"}
{"smiles": "COC(=O)C1(C)COP(=O)(N2CCCC2)OC1", "note": "(stereo not drawn)", "inhibition": "inactive: -1.31%"}
{"smiles": "COP1(=S)c2c(C)nn(CCC#N)c2N=C(c2ccc(F)cc2)N1C", "note": "(stereo not drawn)", "inhibition": "inactive: -0.201%"}
{"smiles": "CCC(C)N(CC(C)C)C(=S)SC(NC(C)=O)C(Cl)(Cl)Cl", "note": "(stereo not drawn)", "inhibition": "inactive: 0.852%"}
{"smiles": "CCOC(=O)c1ccc(NC(=O)C(C)(CCl)SC)cc1", "note": "(stereo not drawn)", "inhibition": "inactive: 0.392%"}
{"smiles": "CSc1ccc(Nc2c([N+](=O)[O-])cc([N+](=O)[O-])cc2[N+](=O)[O-])cc1", "inhibition": "inactive: 5%"}
{"smiles": "O=C(OC1CN2CCC1CC2)c1cccc([N+](=O)[O-])c1", "note": "(stereo not drawn)", "inhibition": "inactive: 3%"}
{"smiles": "Cc1cc(SC(NC(=O)c2ccccc2)C(Cl)(Cl)Cl)nc(C(C)C)n1", "note": "(stereo not drawn)", "inhibition": "inactive: 4.24%"}
{"smiles": "CCCCOc1ccc(C(=O)NCC2(N3CCCCC3)CCCCC2)cc1OC", "inhibition": "inactive: -17.1%"}
{"smiles": "COP(=O)(OC)N1CC1c1ccccc1", "note": "(stereo not drawn)", "inhibition": "inactive: 1.4%"}
{"smiles": "CC1CCNP(=O)(N(CCCl)CCCl)O1", "note": "(stereo not drawn)", "inhibition": "inactive: 1.69%"}
{"smiles": "CCOC(=O)Nc1ccc([As](=O)(O)O)c(O)c1", "inhibition": "inactive: 2.44%"}
{"smiles": "O=C(O)C(O)c1ccc(N(CCCl)CCCl)cc1", "note": "(stereo not drawn)", "inhibition": "inactive: 2.49%"}
{"smiles": "O=[N+]([O-])c1ccc(Nc2ccc(Oc3ccc([N+](=O)[O-])cc3[N+](=O)[O-])cc2)c([N+](=O)[O-])c1", "inhibition": "inactive: 3.79%"}
{"smiles": "O=P(Nc1ccccn1)(c1cccc2ccccc12)c1cccc2ccccc12", "inhibition": "inactive: 1.79%"}
{"smiles": "Cc1cc(SC(NC=O)C(Cl)(Cl)Cl)ncn1", "note": "(stereo not drawn)", "inhibition": "inactive: -0.938%"}
{"smiles": "CCOC(=O)Nc1cccc([As](=O)(O)O)c1", "inhibition": "inactive: 1.2%"}
{"smiles": "Cc1ccc2nc3c(c(C)c2c1)CC(C(Cl)Cl)S3", "note": "(stereo not drawn)", "inhibition": "inactive: -1.82%"}
{"smiles": "[N-]=[N+]=NC1CCCCC1NC(=O)c1cc([N+](=O)[O-])cc([N+](=O)[O-])c1", "note": "(stereo not drawn)", "inhibition": "inactive: 0.707%"}
{"smiles": "Cc1ccc(OP(=O)(Nc2ccc([N+](=O)[O-])cn2)Oc2ccc(C)cc2)cc1", "inhibition": "inactive: 1.75%"}
{"smiles": "COc1cc(C(=O)NCC2(N3CCOCC3)CCCCC2)ccc1OCC(C)C", "inhibition": "inactive: 0.676%"}
{"smiles": "O=[N+]([O-])c1ccc(-c2cc([N+](=O)[O-])c(O)c([N+](=O)[O-])c2)cc1", "inhibition": "inactive: 7.67%"}
{"smiles": "C[As](=O)(O)c1cccc(C(=O)O)c1", "inhibition": "inactive: 2.22%"}
{"smiles": "O=[As](O)(c1ccc(O)cc1)c1ccccc1O", "inhibition": "inactive: -0.245%"}
{"smiles": "O=[N+]([O-])c1cc([N+](=O)[O-])c(-c2ccn[nH]2)s1", "inhibition": "inactive: 2.75%"}
{"smiles": "O=C(OC1CN2CCC1CC2)c1cccc2[nH]cnc12", "note": "(stereo not drawn)", "inhibition": "inactive: -0.399%"}
{"smiles": "CCN(CC)C(=S)SC(NC=O)C(Cl)(Cl)Cl", "note": "(stereo not drawn)", "inhibition": "inactive: -0.295%"}
{"smiles": "CC(C)NC(=O)NP(=O)(Oc1ccccc1)Oc1ccccc1", "inhibition": "inactive: 0.257%"}
{"smiles": "CC(C)c1ccc(OP(=O)(Nc2ccccn2)Oc2ccccc2F)cc1", "note": "(stereo not drawn)", "inhibition": "inactive: 0.586%"}
{"smiles": "COC(=O)C1(C)COP(=O)(N2CCCCCC2)OC1", "note": "(stereo not drawn)", "inhibition": "inactive: 0.32%"}
{"smiles": "ClCCSc1nnc(-c2cccnc2)o1", "inhibition": "inactive: 1.64%"}
{"smiles": "COc1cc(I)ccc1[As](=O)(O)O", "inhibition": "inactive: 0.463%"}
{"smiles": "COc1ccc2nc(NP(=O)(c3ccccc3)c3ccccc3)sc2c1", "inhibition": "inactive: -1.05%"}
{"smiles": "O=P1(N(CCCl)CCCl)OCCCN1CCCl", "note": "(stereo not drawn)", "inhibition": "inactive: 0.278%"}
{"smiles": "O=P1(N(CCCl)CCCl)Nc2ccccc2N1", "inhibition": "inactive: 19.3%"}
{"smiles": "Cc1cc(=O)[nH]c(N[N+](=O)[O-])n1", "inhibition": "inactive: 1.06%"}
{"smiles": "O=C(OC1CN2CCC1CC2)C12CC3CC(CC(C3)C1)C2", "note": "(stereo not drawn)", "inhibition": "inactive: -1.51%"}
{"smiles": "Cc1c2c(nc3ccccc13)SC(C(Cl)Cl)C2", "note": "(stereo not drawn)", "inhibition": "inactive: -2.13%"}
{"smiles": "COc1ccc(N/C(=N/P(=O)(N2CCOCC2)N2CCOCC2)N2CCOCC2)cc1", "inhibition": "inactive: 1.29%"}
{"smiles": "O=[N+]([O-])c1cc(Oc2ccc([N+](=O)[O-])cc2C(F)(F)F)cc([N+](=O)[O-])c1", "inhibition": "inactive: -0.846%"}
